Ab-95 light chain CDR variants: yeast mating affinities

Reference: Engelhart et al. 2022, doi:10.1038/s41597-022-01779-4. File: FLAb, binding data.

Target: peptide PDVDLGDISGINAS, taken from heptad repeat 2 (HR2) of SARS-CoV-2 spike.

Ab-95 is the parent antibody, in scFv form: VH, then a 15-residue (Gly4Ser)3 linker, then VL. The heavy chain is unchanged in all variants.
VH: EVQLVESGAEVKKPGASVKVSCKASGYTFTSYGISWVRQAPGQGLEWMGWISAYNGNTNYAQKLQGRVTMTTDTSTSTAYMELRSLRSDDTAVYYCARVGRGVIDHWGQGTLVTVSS
VL: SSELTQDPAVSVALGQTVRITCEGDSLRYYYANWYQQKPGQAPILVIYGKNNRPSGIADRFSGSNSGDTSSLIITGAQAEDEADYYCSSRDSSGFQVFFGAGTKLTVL

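The starting antibody came from a phage panning campaign against this peptide. In library AAYL52, one, two or three CDR residues were substituted; doubles and triples were drawn at random. Affinity was read by AlphaSeq, a pooled yeast mating assay with surface-displayed partners. The frequency of each diploid, read from paired DNA barcodes, reflects how well the two displayed proteins bind. The ratio of observed to expected reads was calibrated, replicate by replicate, on BCL2-family standards whose Kd was known from biolayer interferometry. Mating was done three times.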

The whole VL of each variant is written out. All variants listed here change S93 of the VL, counted from its first residue. Scale: log10 of Kd in nM, estimated from mating counts; low values are strong binders. Averages over replicates are reported, and they cover detected replicates only. Where no diploid with the target was found in that replicate, the entry reads "nd": below detection, most likely a poor binder, though not proof of it. Parent in this assay: reference entry 2.31, copy in this library 2.25.

* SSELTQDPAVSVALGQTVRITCEGDSLRYYYANWYQQKPGQAPILVIYGKINRPSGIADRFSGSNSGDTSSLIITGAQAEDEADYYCSSRDSCGMQVFFGAGTKLTVL -> nd, 3.80, nd (controls 4 of 9)
* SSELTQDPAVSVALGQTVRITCEGDSLRYYAANWYQQKPGQAPILVIYGKNNRPSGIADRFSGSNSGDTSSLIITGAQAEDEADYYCSSRDSNGFDVFFGAGTKLTVL -> 2.73, 2.40, nd (mean 2.57; controls 0 of 9)
* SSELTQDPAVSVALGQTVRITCEGDSLRYYYANWYQQKPGQAPILVIYGKNNRMSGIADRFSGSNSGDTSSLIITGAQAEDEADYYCSSRDSGGKQVFFGAGTKLTVL -> 3.56, 2.46, nd (mean 3.01; controls 2 of 9)
* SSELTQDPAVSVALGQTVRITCEGDSLRYYYANWYQQKPGQAPILVIYGKNKRLSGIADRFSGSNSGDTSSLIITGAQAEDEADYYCSSRDSWGFQVFFGAGTKLTVL -> 3.77, 3.82, nd (mean 3.79; controls 3 of 9)
* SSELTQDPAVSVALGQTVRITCEGDSLRYYYANWYQQKPGQAPILVIYTKNNRPSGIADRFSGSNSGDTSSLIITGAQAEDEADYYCSSRDSWRFQVFFGAGTKLTVL -> nd, 4.20, nd (controls 1 of 9)
* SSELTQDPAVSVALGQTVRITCEGDSLRYYYANWYQQKPGQAPILVIYGKNNRPQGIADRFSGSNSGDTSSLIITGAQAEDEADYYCSSRDQAGFQVFFGAGTKLTVL -> 2.59, 2.15, 1.82 (mean 2.19; controls 2 of 9)
* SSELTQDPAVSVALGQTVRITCEGDSLRYYYANWYQQKPGQAPILVIYGGNNRPSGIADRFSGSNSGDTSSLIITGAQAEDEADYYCSSRDSRGFQVFFGAGTKLTVL -> 1.94, 1.39, 1.65 (mean 1.66; controls 4 of 9)
* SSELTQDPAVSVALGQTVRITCEGDSLRYYYANWYQQKPGQAPILVIYGKNQRPSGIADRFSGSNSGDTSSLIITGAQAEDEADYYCSSGDSDGFQVFFGAGTKLTVL -> 3.69, 3.25, nd (mean 3.47; controls 2 of 9)
* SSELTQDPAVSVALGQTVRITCEEDSLRYYYANWYQQKPGQAPILVIYGKNNRPSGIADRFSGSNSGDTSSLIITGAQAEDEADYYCSSRDSIGFQVFFGAGTKLTVL -> 3.79, nd, 3.76 (mean 3.78; controls 3 of 9)
* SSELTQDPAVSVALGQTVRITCEGDSLRYYYANWYQQKPGQAPILVIYGKNNRPSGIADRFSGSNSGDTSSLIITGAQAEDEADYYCSSLDSTGFQVFFGAGTKLTVL -> 3.33, nd, nd (controls 2 of 9)
* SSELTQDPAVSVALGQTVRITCEGDSLRYYYANWYQQKPGQAPILVIYGKKNRPSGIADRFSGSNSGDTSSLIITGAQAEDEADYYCSSRDSDGGQVFFGAGTKLTVL -> nd, nd, nd (controls 2 of 9)
* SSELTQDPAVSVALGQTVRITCNGDSLRYYYINWYQQKPGQAPILVIYGKNNRPSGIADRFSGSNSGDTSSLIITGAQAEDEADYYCSSRDSIGFQVFFGAGTKLTVL -> nd, 4.27, 2.92 (mean 3.60; controls 2 of 9)
* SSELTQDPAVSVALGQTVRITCEGDSERYYYANWYQQKPGQAPILVIYGKNNRPSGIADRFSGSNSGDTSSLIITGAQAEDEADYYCSHRDSPGFQVFFGAGTKLTVL -> nd, nd, nd (controls 2 of 9)
* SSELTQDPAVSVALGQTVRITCEGDSLRYYYANWYQQKPGQAPILVIYGKNNRPSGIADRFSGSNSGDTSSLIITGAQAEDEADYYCFSRDAAGFQVFFGAGTKLTVL -> 2.34, 1.96, 1.99 (mean 2.10; controls 0 of 9)
* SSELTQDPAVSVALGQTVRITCEGDSLRYYYANWYQQKPGQAPILVIYGKNNLPSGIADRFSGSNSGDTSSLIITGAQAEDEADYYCSSRDSARFQVFFGAGTKLTVL -> 4.23, 4.00, nd (mean 4.12; controls 5 of 9)
* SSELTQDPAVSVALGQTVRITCEGDSCRYYYDNWYQQKPGQAPILVIYGKNNRPSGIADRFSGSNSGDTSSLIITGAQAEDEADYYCSSRDSMGFQVFFGAGTKLTVL -> nd, nd, nd (controls 0 of 9)
* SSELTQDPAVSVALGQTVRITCEGDSLRYYYANWYQQKPGQAPILVIYGKNNRPSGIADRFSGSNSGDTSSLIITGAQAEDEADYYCSSRPSFGEQVFFGAGTKLTVL -> 3.78, 3.01, 3.86 (mean 3.55; controls 3 of 9)
* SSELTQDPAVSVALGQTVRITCVGDSCRYYYANWYQQKPGQAPILVIYGKNNRPSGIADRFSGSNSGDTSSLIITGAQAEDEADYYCSSRDSFGFQVFFGAGTKLTVL -> nd, nd, nd (controls 5 of 9)
* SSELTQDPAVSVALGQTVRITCEGDSLRYYYANWYQQKPGQAPILVIYGKNNRPSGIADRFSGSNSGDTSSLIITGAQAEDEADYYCSSRLSQGFQVYFGAGTKLTVL -> 2.22, 2.85, 2.16 (mean 2.41; controls 3 of 9)
* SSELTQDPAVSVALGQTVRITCEGDSLRYYYANWYQQKPGQAPILVIYGKNNDSSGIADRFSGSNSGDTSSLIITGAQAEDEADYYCSSRDSQGFQVFFGAGTKLTVL -> 5.09, nd, nd (controls 4 of 9)

Three control strains display no target. For library AAYL52, 28% of the pairings with them gave a signal, with a median of 3.91 and one signal in twenty below 2.90, so weak values seen in few replicates may be background. Also given: how often the same scFv was detected with the empty control strains.